The record followed here is PubChem BioAssay AID1347148 (WashU High Throughput Screening Center, 2019).

This is a selection; strong and weak results do not stand in their true shares. The source made the active and inactive calls. The rule behind the calls is not given here.

This experiment is described as follows: inhibitors of Cryptococcus chitosan production, flow cytometry, Cibacron Brilliant Red staining (AID 1347148).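 Note: compound exposure lasted three days at 37 degrees C.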 The note with it: Cryptococcus neoformans chitosan, at 135.4 µM, hits give low values. On the technique in general: In flow cytometry, cells or beads pass a laser one at a time.

`CN(C(=O)Cc1ccc(Cl)c(Cl)c1)[C@H]1CCCC[C@@H]1N1CCCC1`: the fold fluorescence is inactive: 11.8.
